PubChem BioAssay (NCI)
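The compound was tested at five concentrations on cells cultured in 96-well plates, with a 48-hour exposure period. GI50 marks 50% less growth. TGI denotes the concentration required for complete inhibition of growth.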

Tests used:
Experiment in all cases: NCI-60 cell line screen, 48 h
MDA-MB-435 = test system: MDA-MB-435
K-562 leukemia = test system: K-562 leukemia
HL-60(TB) leukemia = test system: HL-60(TB) leukemia
MALME-3M melanoma = test system: MALME-3M melanoma
HCT-116 colon = test system: HCT-116 colon
UACC-257 melanoma = test system: UACC-257 melanoma
CCRF-CEM leukemia = test system: CCRF-CEM leukemia
HT29 colon = test system: HT29 colon
M14 melanoma = test system: M14 melanoma
UO-31 renal = test system: UO-31 renal
HCT-15 colon = test system: HCT-15 colon
MDA-N = test system: MDA-N
ACHN renal = test system: ACHN renal
NCI-H460 lung = test system: NCI-H460 lung
RXF 393 renal = test system: RXF 393 renal
U251 CNS = test system: U251 CNS
MOLT-4 leukemia = test system: MOLT-4 leukemia
PC-3 prostate = test system: PC-3 prostate
SF-268 CNS = test system: SF-268 CNS
SN12C renal = test system: SN12C renal
CAKI-1 renal = test system: CAKI-1 renal
RPMI-8226 leukemia = test system: RPMI-8226 leukemia
HOP-92 NSCLC = test system: HOP-92 NSCLC
OVCAR-3 ovarian = test system: OVCAR-3 ovarian
SNB-75 CNS = test system: SNB-75 CNS
COLO 205 colon = test system: COLO 205 colon
MCF7 breast = test system: MCF7 breast
786-0 renal = test system: 786-0 renal
HOP-62 NSCLC = test system: HOP-62 NSCLC
SK-OV-3 ovarian = test system: SK-OV-3 ovarian
A549 NSCLC = test system: A549 NSCLC
UACC-62 melanoma = test system: UACC-62 melanoma
TK-10 renal = test system: TK-10 renal
HS 578T breast = test system: HS 578T breast
DU-145 prostate = test system: DU-145 prostate
KM12 colon = test system: KM12 colon
SNB-19 CNS = test system: SNB-19 CNS
A498 renal = test system: A498 renal
LOX IMVI melanoma = test system: LOX IMVI melanoma
MDA-MB-231 breast = test system: MDA-MB-231 breast
SK-MEL-2 melanoma = test system: SK-MEL-2 melanoma
NCI-H23 lung = test system: NCI-H23 lung
SR leukemia = test system: SR leukemia
SK-MEL-28 melanoma = test system: SK-MEL-28 melanoma
SF-539 CNS = test system: SF-539 CNS
SW-620 colon = test system: SW-620 colon
NCI-H322M lung = test system: NCI-H322M lung
IGROV1 ovarian = test system: IGROV1 ovarian
T-47D breast = test system: T-47D breast
NCI-H522 lung = test system: NCI-H522 lung
NCI/ADR-RES ovarian = test system: NCI/ADR-RES ovarian
OVCAR-8 ovarian = test system: OVCAR-8 ovarian
SK-MEL-5 melanoma = test system: SK-MEL-5 melanoma
BT-549 breast = test system: BT-549 breast

## O=C1OC(C(Cl)(Cl)Cl)Sc2ccccc21 (stereo not drawn)
MDA-MB-435
  GI50: > 100 µM
  TGI: > 100 µM
K-562 leukemia
  GI50: > 100 µM
  TGI: > 100 µM
HL-60(TB) leukemia
  GI50: > 100 µM
  TGI: > 100 µM
MALME-3M melanoma
  GI50: 88.5 µM
  TGI: > 100 µM
HCT-116 colon
  GI50: > 100 µM
  TGI: > 100 µM
UACC-257 melanoma
  GI50: > 100 µM
  TGI: > 100 µM
CCRF-CEM leukemia
  GI50: 16.8 µM
  TGI: 96.1 µM
HT29 colon
  GI50: > 100 µM
  TGI: > 100 µM
M14 melanoma
  GI50: > 100 µM
  TGI: > 100 µM
UO-31 renal
  GI50: > 100 µM
  TGI: > 100 µM
HCT-15 colon
  GI50: > 100 µM
  TGI: > 100 µM
MDA-N
  GI50: > 100 µM
  TGI: > 100 µM
ACHN renal
  GI50: > 100 µM
  TGI: > 100 µM
NCI-H460 lung
  GI50: > 100 µM
  TGI: > 100 µM
RXF 393 renal
  GI50: > 100 µM
  TGI: > 100 µM
U251 CNS
  GI50: > 100 µM
  TGI: > 100 µM
MOLT-4 leukemia
  GI50: > 100 µM
  TGI: > 100 µM
PC-3 prostate
  GI50: > 100 µM
  TGI: > 100 µM
SF-268 CNS
  GI50: > 100 µM
  TGI: > 100 µM
SN12C renal
  GI50: > 100 µM
  TGI: > 100 µM
CAKI-1 renal
  GI50: > 100 µM
  TGI: > 100 µM
RPMI-8226 leukemia
  GI50: > 100 µM
  TGI: > 100 µM
HOP-92 NSCLC
  GI50: > 100 µM
  TGI: > 100 µM
OVCAR-3 ovarian
  GI50: > 100 µM
  TGI: > 100 µM
SNB-75 CNS
  GI50: > 100 µM
  TGI: > 100 µM
COLO 205 colon
  GI50: > 100 µM
  TGI: > 100 µM
MCF7 breast
  GI50: > 100 µM
  TGI: > 100 µM
786-0 renal
  GI50: > 100 µM
  TGI: > 100 µM
HOP-62 NSCLC
  GI50: > 100 µM
  TGI: > 100 µM
SK-OV-3 ovarian
  GI50: > 100 µM
  TGI: > 100 µM
A549 NSCLC
  GI50: > 100 µM
  TGI: > 100 µM
UACC-62 melanoma
  GI50: > 100 µM
  TGI: > 100 µM
TK-10 renal
  GI50: > 100 µM
  TGI: > 100 µM
HS 578T breast
  GI50: > 100 µM
  TGI: > 100 µM
DU-145 prostate
  GI50: > 100 µM
  TGI: > 100 µM
KM12 colon
  GI50: > 100 µM
  TGI: > 100 µM
SNB-19 CNS
  GI50: > 100 µM
  TGI: > 100 µM
A498 renal
  GI50: > 100 µM
  TGI: > 100 µM
LOX IMVI melanoma
  GI50: > 100 µM
  TGI: > 100 µM
MDA-MB-231 breast
  GI50: > 100 µM
  TGI: > 100 µM
SK-MEL-2 melanoma
  GI50: > 100 µM
  TGI: > 100 µM
NCI-H23 lung
  GI50: > 100 µM
  TGI: > 100 µM
SR leukemia
  GI50: > 100 µM
  TGI: > 100 µM
SK-MEL-28 melanoma
  GI50: > 100 µM
  TGI: > 100 µM
SF-539 CNS
  GI50: > 100 µM
  TGI: > 100 µM
SW-620 colon
  GI50: > 100 µM
  TGI: > 100 µM
NCI-H322M lung
  GI50: 67.9 µM
  TGI: > 100 µM
IGROV1 ovarian
  GI50: 80.6 µM
  TGI: > 100 µM
T-47D breast
  GI50: > 100 µM
  TGI: > 100 µM
NCI-H522 lung
  GI50: > 100 µM
  TGI: > 100 µM
NCI/ADR-RES ovarian
  GI50: > 100 µM
  TGI: > 100 µM
OVCAR-8 ovarian
  GI50: > 100 µM
  TGI: > 100 µM
SK-MEL-5 melanoma
  GI50: > 100 µM
  TGI: > 100 µM
BT-549 breast
  GI50: > 100 µM
  TGI: > 100 µM
